For the test, the target named is OPRM1 (μ-opioid receptor; HEKOPRM1) (Rattus norvegicus, UniProt P33535). In words: saturation binding, isolated cell membranes (Scatchard). The settings on record: labelled compound; only Bmax reported.

Chains of the proteins cited; added tags and fusions are not shown. Lines headed by an entry give the natural chain unless they say otherwise; changes in a name come on top.
UniProt P33535: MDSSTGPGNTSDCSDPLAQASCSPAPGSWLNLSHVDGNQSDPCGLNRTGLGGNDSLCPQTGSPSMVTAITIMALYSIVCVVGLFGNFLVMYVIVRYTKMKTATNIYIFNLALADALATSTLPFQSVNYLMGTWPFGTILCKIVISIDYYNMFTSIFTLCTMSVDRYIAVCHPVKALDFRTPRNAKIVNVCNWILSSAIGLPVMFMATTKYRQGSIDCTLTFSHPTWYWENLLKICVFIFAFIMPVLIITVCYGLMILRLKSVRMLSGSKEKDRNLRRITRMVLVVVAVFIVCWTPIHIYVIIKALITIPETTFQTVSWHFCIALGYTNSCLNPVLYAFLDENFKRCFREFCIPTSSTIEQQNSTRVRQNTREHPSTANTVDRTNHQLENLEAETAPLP

As to [^3H]-diprenorphine, the “saturation binding, isolated cell membranes (Scatchard)” value is “[^3H]-diprenorphine saturation binding assay using isolated cell membranes”.
